One compound from paper PMC10958117, “G-site residue S67 is involved in the fungicide-degrading activity of a tau class glutathione S-transferase from Carica papaya” (The Journal of Biological Chemistry, 2024) can be followed below.

The chains behind the UniProt entries cited, without tags or fusion partners. Residues count along the entry.
UniProt O49821, 1-218: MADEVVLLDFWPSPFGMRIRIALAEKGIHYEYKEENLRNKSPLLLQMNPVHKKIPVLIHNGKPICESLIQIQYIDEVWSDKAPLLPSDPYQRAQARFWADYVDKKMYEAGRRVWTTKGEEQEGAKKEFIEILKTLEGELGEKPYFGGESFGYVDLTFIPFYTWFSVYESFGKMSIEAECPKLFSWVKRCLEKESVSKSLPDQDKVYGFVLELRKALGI

By IC50 is commonly meant the point on the concentration scale where inhibition reaches its midpoint.

SMILES strings stand for the structures.

This experiment concerns the target tau class glutathione S-transferase from Carica papaya (TCpGST) (Carica papaya, UniProt O49821). The experiment can be described thus: inhibition of TCpGST-catalyzed thiram degradation, HPLC.

For the compound `O=[N+]([O-])c1ccc(Cl)c2nonc12`, the IC50 worked out at 320 µM.
